The test concerns the target human mesothelin expressed on target cells (human, UniProt Q13421). Description: cell-based or functional assay.

Amino acid sequences for entries named in this document (tags omitted). Chains listed by the source or under a name are the forms on record and can include a tag or linker.
UniProt Q13421, other isoform, or with tags, fused parts or gaps limits assumed: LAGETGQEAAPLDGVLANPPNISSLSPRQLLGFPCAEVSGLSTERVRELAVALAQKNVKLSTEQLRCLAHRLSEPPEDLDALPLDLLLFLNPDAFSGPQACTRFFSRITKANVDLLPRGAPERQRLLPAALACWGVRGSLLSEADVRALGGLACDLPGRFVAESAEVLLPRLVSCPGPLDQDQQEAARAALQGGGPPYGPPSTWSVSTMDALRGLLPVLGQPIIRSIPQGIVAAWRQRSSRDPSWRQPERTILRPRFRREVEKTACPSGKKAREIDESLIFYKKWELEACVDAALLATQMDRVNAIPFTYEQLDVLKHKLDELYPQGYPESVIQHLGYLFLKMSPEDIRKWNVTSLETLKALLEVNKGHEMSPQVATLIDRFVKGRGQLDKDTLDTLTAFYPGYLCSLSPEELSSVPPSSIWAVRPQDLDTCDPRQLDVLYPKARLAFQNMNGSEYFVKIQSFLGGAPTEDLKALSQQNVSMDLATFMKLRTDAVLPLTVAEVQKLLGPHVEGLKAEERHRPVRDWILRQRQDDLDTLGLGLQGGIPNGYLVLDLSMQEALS

B1: SD1 CD3ε-TFP (other, not shown: large carriers)
chain: EVQLVESGGGLVQPGGSLRLSCAASGGDWSANFMYWYRQAPGKQRELVARISGRGVVDYVESVKGRFTISRDNSKNTLYLQMNSLRAEDTAVYYCAVASYWGQGTLVTVSSDGNEEMGGITQTPYKVSISGTTVILTCPQYPGSEILWQHNDKNIGGDEDDKNIGSDEDHLSLKEFSELEQSGYYVCYPRGSKPEDANFYLYLRARVCENCMEMDVMSVATIVIVDICITGGLLLLVYYWSKNRKAKAKPVTRGAGAGGRQRGQNKERPPPVPNPDYEPIRKGQRDLYSGLNQRRI
For B1, the “tumor cell lysis, luciferase assay, 1-to-1 effector to target ratio, patients 1, 2, 4 and 5” value is roughly 50%; the “tumor cell lysis, luciferase assay, 1-to-5 effector to target ratio, patients 4 and 5” value was roughly 50%; the “tumor cell lysis, luciferase assay, 5-to-1 effector to target ratio, patient 3” value was roughly 35%.

These data come from patent US20200362306A1 (published 2020).
